Drawing on ChEMBL document CHEMBL6096676, “TarIKGC: A Target Identification Tool Using Semantics-Enhanced Knowledge Graph Completion with Application to CDK2 Inhibitor Discovery” (J Med Chem, 2025), this text covers IC50 for two molecules.

The pIC50 is −log10 of the IC50, conventionally taken in molar units. Higher therefore signals a low IC50.

One series deals with PC-9. The series is described as follows: Antiproliferative activity against human PC-9 cells measured after 48 to 72 hrs by CCK-8 method. For orientation: Tetrazolium dyes change colour on reduction, which living cells bring about.
The next series deals with AGS. As to the kind of experiment: Antiproliferative activity against human AGS cells measured after 48 to 72 hrs by CCK-8 method.
In another series the test system is MKN-28. The series is described as follows: Antiproliferative activity against human MKN-28 cells measured after 48 to 72 hrs by CCK-8 method.
The test system of another series is SW-620. The series is described as follows: Antiproliferative activity against human SW620 cells measured after 48 to 72 hrs by CCK-8 method.
In the next series the test system is Huh-7. As to the kind of experiment: Antiproliferative activity against human Huh-7 cells measured after 48 to 72 hrs by CCK-8 method.
Series [1] is described as follows: Antiproliferative activity against human THLE-2 cells measured after 48 to 72 hrs by CCK-8 method.
Series [2] is described as follows: Antiproliferative activity against HEK293T cells measured after 48 to 72 hrs by CCK-8 method. The settings on record: human.

pIC50: −log10 of the molar value.

As to `NC(=O)c1nc(-c2ccc(Br)cc2)nc2c1[nH]c(=O)n2-c1ccccc1`, the pIC50 is 4.96 in the series with PC-9; 5.09 in the series with AGS; 5.00 in the series on MKN-28; 4.96 in the series on SW-620; 5.09 in the series on Huh-7.
As to `COC(=O)c1cc2oc3ccccc3c2n1CC(=O)Nc1ccc(Br)cc1F`, the pIC50 in the series on PC-9 is 5.17; in the series with AGS, 5.82; with MKN-28, 5.25; with SW-620, 5.81; with Huh-7 it was 5.24; in series [1] it was 4.94. This molecule showed a pIC50 in series [2] of 4.76.
